Reference: patent publication US6359005B1, “Method for the treatment of mania and bipolar disorder” (Warner-Lambert Company, priority 1998, dated 2002)

Assay: Toxicity / tolerability of the compound
Conditions: in vivo

**Q.** Which Toxicity does the source give for `CC(C)C[C@H](CN)CC(=O)O` [Pregabalin, (S)-3-(aminomethyl)-5-methylhexanoic acid] here?
**A.** The Toxicity was “relatively nontoxic”.
